{
  "source": "paper PMC9928118",
  "about": "“Funneling modulatory peptide design with generative models: Discovery and characterization of disruptors of calcineurin protein-protein interactions” (PLOS Computational Biology, 2023)",
  "key": {"GST-tagged Cn [1]": {"system": "GST-tagged Cn", "experiment": "PEPperPRINT peptide microarray binding assay with GST-tagged Cn", "from_the_text": "We then estimated in-silico the binding strength of the various peptides to Cn by template-based docking followed by flexible backbone refinement using Modeller and PepCrawler (Figs 4 and S4). In parallel, we performed a medium-throughput qualitative binding assay using a PEPperPRINT peptide microarray to evaluate the direct binding of Cn to selected peptides (Figs 4 and S5, S3 Data).\nFig 4 Medium-throughput filtering by structural modeling and microarray screening. (a) Depiction of the structural modeling protocol: after alignment to the known PxIxIT binding site, an efficient flexible backbone structure refinement algorithm is applied to estimate the docking energy. […] (f) Scatter plot of the sequence likelihood (normalized by length, higher is better) against fluorescence level (higher is better, see Methods for details of the data analysis).\nIn parallel, selected peptides were tested for Cn binding on a chip microarray (PEPperPRINT). […] Following extensive washing, binding was detected by applying a fluorescently labeled (Alexa-Fluor 647) GST antibody. […] The experiment was repeated five times, and Z-normalized fluorescence levels were determined following post-processing of the raw data (Methods, S5A, S5B and S5C Fig).\nThe peptide array was prepared as a custom array pepper chip (PEPperPRINT). […] Fluorescence levels were next averaged over the two ROI for each peptide and Z-normalized. […]"}, "Calcineurin (Cn)": {"molecular_target": "Calcineurin (Cn)", "settings": "PVIVIT peptide; read-out: Dissociation constant kd for Cn; cited from earlier work"}, "GST-tagged Cn [2]": {"system": "GST-tagged Cn", "experiment": "PEPperPRINT peptide microarray binding assay with GST-tagged Cn", "settings": "max over the duplicate spots (Location on chip)"}, "[3]": {"molecular_target": "T1, catalytic domain of Calcineurin (Cn A), residues 2-347 with Y341S, L343A, M347D (UniProt Q08209 2-347, Y341S | L343A | M347D)", "T1 construct": "Calcineurin catalytic domain (calcineurin A), residues 2-347, with substitutions Y341S, L343A, M347D; Expressed as a cleavable GST fusion; source: E. coli BL21, purified (Glutathione Sepharose 4 Fast Flow, size exclusion on Superdex 75)", "experiment": "fluorescence polarisation; competition: variable concentrations of non-labeled peptide added to 100 nM FITC-labeled PVIVIT peptide and 4 uM Cn A, 96-well plate, triplicate; fitted to a single site inhibition model", "settings": "both partners purified"}},
  "data": [
    {"molecule": "CC[C@H](C)[C@H](NC(=O)[C@@H](NC(=O)[C@@H]1CCCN1C(=O)[C@H](Cc1c[nH]cn1)NC(=O)[C@@H]1CCCN1C(=O)CNC(=O)[C@H](C)NC(=O)[C@H](CCSC)NC(C)=O)C(C)C)C(=O)N[C@H](C(=O)N[C@H](C(=O)N[C@H](C(=O)NCC(=O)N1CCC[C@H]1C(=O)N[C@@H](Cc1c[nH]cn1)C(=O)N[C@@H](CCC(=O)O)C(=O)N[C@@H](CCC(=O)O)C(N)=O)[C@@H](C)O)[C@@H](C)CC)C(C)C", "note": "[PVIVIT, reference compound]", "values": [
      {"measurement": "Fluorescence level on the chip (Cn binding)", "setting": "GST-tagged Cn [1]; 1mg/ml GST-tagged Cn overnight at 4°C, Alexa-Fluor 647 GST antibody, Z-normalized, averaged over five repetitions, result in words", "result": "only weak fluorescence levels"},
      {"measurement": "Kd", "setting": "Calcineurin (Cn)", "result": "500 to 2000", "unit": "nM"}
    ]},
    {"molecule": "MAGPHPVIVITGPHEE [PVIVIT-containing synthetic peptide]", "values": [
      {"measurement": "Chip Fluorescence (mean)", "setting": "GST-tagged Cn [1]; peptide microarray, GST-tagged Cn, mean over the duplicate spots (Location on chip)", "result": 0.06582},
      {"measurement": "Chip Fluorescence (max)", "setting": "GST-tagged Cn [2]", "result": 2.341}
    ]},
    {"molecule": "MAGPHPVIVITGPHEE (N-terminal acetylation, C-terminal amidation, PVIVIT, synthetic PxIxIT variant, positive control; source: synthetic peptide (peptide2 Inc))", "note": "[PVIVIT peptide (non-labeled)]", "values": [
      {"measurement": "IC50", "setting": "[3]", "result": 10.2, "unit": "µM"}
    ]}
  ]
}
